Columns and labels:
[1] = risk phrase code R43 or H317; cited from earlier work
[2] = test system: female mice; assay: Skin sensitization test according to the LLNA (Local Lymph Node Assay), BrdU intake; type: in vivo; conditions: test substance 50.0 w/v % in acetone/olive oil 4/1, 25 μL/auricle once a day for three days; SI less than 3 = negative in skin sensitizing property
Protocol: Stimulus index (SI) was measured by a skin sensitization test according to the LLNA (Local Lymph Node Assay) as follows.
As a positive control, α-hexyl cinnamaldehyde (HCA, product of Wako Pure Chemical Industries, Ltd.) was used.
As a medium, a mixture liquid of acetone (product of Wako Pure Chemical Industries, Ltd.) and olive oil (product of Fudimi Pharmaceutical Co., Ltd.) in a volume ratio of 4/1 was used.
Before treated with the test materials, the positive control, or the medium control, female mice were acclimated for 8 days including 6-day quarantine. No abnormalities were found in all the mice (used animals) during the quarantine/acclimation period.
Based on the body weights measured 2 days before the initiation of sensitization, they were categorized into 2 groups (4 mice/group) by the body weight stratified random sampling method so that the body weight of each individual was within ±20% of the average body weight of all the individuals. Each of the used animals was 8 weeks old to 9 weeks old at the time of the initiation of sensitization. […]
About 24 hours after the administration of BrdU, the used animals were allowed to undergo euthanasia, and their auricular lymph nodes were sampled. […] Also, the average of the weights of the auricular lymph nodes and the standard error thereof were calculated for each group. […]

Ethylene-oxide-modified trimethylolpropane triacrylate
skin sensitizing property [1]: Positive

Ethylene-oxide-modified trimethylolpropane trimethacrylate
SI measured by the LLNA test (stimulus index) [2]: 1.0

From patent US10538099B2, “Inkjet recording apparatus, printer, and method for manufacturing cured product” (Ricoh Company, Ltd., priority 2016, dated 2020)
